In PubChem BioAssay AID1465 (SRMLSC, 2008):
This is one part of the list. Entries with a potency or affinity are not part of this list. Some structures show a salt or complex split into parts, the way the source records it. Activity calls are given as the source filed them.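 How the source made its calls: active means fold induction of absorbance versus untreated yeast above a set limit, then at least 30% activation at any dose in follow-up; inconclusive means repeats straddling the limit, or above it without dose testing; inactive means fold induction below the set limit.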

Test: mitochondrial function rescue without frataxin homolog – Friedreich's ataxia, plus single-dose screen, dose response (AID 1465)
Details: S. cerevisiae Yfh1-off respiration, WST-1 reduction, 72 h; at 50 µM; hits give high values

| SMILES | fold induction |
| --- | --- |
| CP(=S)(Nn1cnnc1)Oc1ccccc1 (stereo unspecified) | inactive: 1.06 |
| CP(=O)(Nc1ccccc1Br)Oc1ccccc1 (stereo unspecified) | inactive: 0.99 |
| COc1ccccc1OP(C)(=O)Nc1ccccc1 (stereo unspecified) | inactive: 1.05 |
| CCOC(=O)c1ccc(NP(C)(=O)Oc2ccc(OC)cc2)cc1 (stereo unspecified) | inactive: 0.8 |
| CCOP(C)(=S)SCC(=O)NC(C)C(=O)O (stereo unspecified) | inactive: 1.1 |
| CP(=O)(Nc1ccccn1)Oc1ccc(Cl)cc1 (stereo unspecified) | inactive: 1.04 |
| Cc1cccc(C)c1OP(C)(=O)Nc1ccc(SC(F)(F)F)cc1 (stereo unspecified) | inactive: 0.82 |
| CP(=O)(Nc1ccc(SC(F)(F)F)cc1)Oc1ccc(Cl)cc1 (stereo unspecified) | inactive: 1.09 |
| CP(=O)(Oc1ccccc1)OC(c1ccccc1)C(F)(F)F (stereo unspecified) | inactive: 0.86 |
| CCc1ccc(OP(C)(=O)N2CCN(c3ccc([N+](=O)[O-])cc3)CC2)cc1 (stereo unspecified) | inactive: 1.09 |
| CP(=O)(NC(=O)Nc1ccccc1)Oc1ccccc1 (stereo unspecified) | inactive: 1.03 |
| Cc1cc(C)cc(OP(C)(=O)Nc2ccc(SC(F)(F)F)cc2)c1 (stereo unspecified) | inactive: 1.04 |
| CCN(CC)CCCOC(=O)C(O)(c1ccccc1)c1ccccc1 | inactive: 1.04 |
| COc1ccccc1OP(C)(=O)Nc1ccc(C)cc1 (stereo unspecified) | inactive: 1.09 |
| CCOC(=O)c1ccc(NP(C)(=O)Oc2ccccc2)cc1 (stereo unspecified) | inactive: 1.06 |
| Cc1cc(C)cc(OP(C)(N)=O)c1 (stereo unspecified) | inactive: 1.02 |
| COc1ccccc1OP(C)(=O)Nc1cc(Cl)ccc1C (stereo unspecified) | inactive: 1.18 |
| O=[N+]([O-])c1ccc2c(c1)C=Nc1ccccc1O2 | inactive: 0.85 |
| CC(C)(C)c1ccc(OP(C)(=O)Nc2ccc(SC(F)(F)F)cc2)cc1 (stereo unspecified) | inactive: 1.04 |
| Cc1cccc(C)c1OP(C)(N)=O (stereo unspecified) | inactive: 1 |
| CC1=NCCc2c1[nH]c1ccccc21.O=[N+]([O-])c1cc([N+](=O)[O-])c(O)c([N+](=O)[O-])c1 | inactive: 1.14 |

| SMILES | fold induction |
| --- | --- |
| O=C(O)c1cccc(Nc2c([N+](=O)[O-])cc([N+](=O)[O-])cc2[N+](=O)[O-])c1 | inactive: 1.2 |
| Cc1ccc(C)c(NP(C)(=O)Oc2ccccc2)c1 (stereo unspecified) | inactive: 1.12 |
| CP(=O)(Nc1cccc(Br)c1)Oc1ccccc1 (stereo unspecified) | inactive: 0.98 |
| Cc1cc(C)cc(OP(C)(=O)Nc2ccccn2)c1 (stereo unspecified) | inactive: 1.06 |
| COc1ccccc1OP(C)(=O)Nc1cccc(Br)c1 (stereo unspecified) | inactive: 0.99 |
| CCOC(=O)c1ccc(NP(C)(=O)Oc2cc(C)cc(C)c2)cc1 (stereo unspecified) | inactive: 0.97 |
| Cc1cc(C)cc(OP(C)(=O)Nc2ccc(C)cc2C)c1 (stereo unspecified) | inactive: 0.95 |
| Cc1nc2ccc3ccccc3c2s1.O=[N+]([O-])c1cc([N+](=O)[O-])c(O)c([N+](=O)[O-])c1 | inactive: 0.97 |
| O=[N+]([O-])c1cc([N+](=O)[O-])c(-n2nnc3ccccc32)c([N+](=O)[O-])c1 | inactive: 1.13 |
| COc1ccccc1OP(C)(=O)Nc1c(C)cccc1C (stereo unspecified) | inactive: 1 |
| CN1CCCCC1COC(=O)C1(O)c2ccccc2CCc2ccccc21 (stereo unspecified) | inactive: 0.84 |
| CP(=O)(Nc1ccc(SC(F)(F)F)cc1)Oc1ccccc1 (stereo unspecified) | inactive: 0.98 |
| CCCOc1ccc(NP(C)(=O)Oc2ccc(Cl)cc2)cc1 (stereo unspecified) | inactive: 0.94 |
| CCOC(=O)C(CC)C1=NC(C)(C)Cc2ccccc21.O=[N+]([O-])c1cc([N+](=O)[O-])c(O)c([N+](=O)[O-])c1 (stereo unspecified) | inactive: 1.09 |
| O=[N+]([O-])c1ccc(OP2(=O)COCCO2)cc1 (stereo unspecified) | inactive: 1.05 |
| O=[N+]([O-])c1cc([N+](=O)[O-])c(NCC2CCS(=O)(=O)C2)c([N+](=O)[O-])c1 (stereo unspecified) | inactive: 1.08 |
| Cc1cc(-c2cccc3ccccc23)c(C)cn1.O=[N+]([O-])c1cc([N+](=O)[O-])c(O)c([N+](=O)[O-])c1 | inactive: 1.03 |
| COc1ccc(OP(C)(=O)Nc2cccc(Br)c2)cc1 (stereo unspecified) | inactive: 0.93 |
| CN(C)CCOC(=O)C(O)(c1ccccc1)C1CCCCC1 (stereo unspecified) | inactive: 0.99 |
| COc1ccc(NP(C)(=O)Oc2ccccc2OC)cc1 (stereo unspecified) | inactive: 1.02 |
| CP(=O)(Nc1ccc2c(c1)OCCO2)Oc1ccccc1 (stereo unspecified) | inactive: 1.02 |

| SMILES | fold induction |
| --- | --- |
| Cc1ccccc1NP(C)(=O)Nc1ccccc1C | inactive: 1.14 |
| CP(=O)(Nc1ccc(SC(F)(F)F)cc1)Oc1ccc(F)cc1 (stereo unspecified) | inactive: 1.06 |
| CCOP(C)(=S)SCC(=O)NC(C)(CC)C(=O)O (stereo unspecified) | inactive: 0.99 |
| O=C(OC1CN2CCC1CC2)c1ccc([N+](=O)[O-])cc1 (stereo unspecified) | inactive: 1.06 |
| O=C(OCCN1CCN(CCOCc2ccccc2)CC1)C(O)(c1ccccc1)c1ccccc1 | inactive: 0.93 |
| COc1ccc2c(c1O)-c1c(O)c(OC)cc3c1[C@H](C2)[N+](C)(C)CC3.O=[N+]([O-])c1cc([N+](=O)[O-])c([O-])c([N+](=O)[O-])c1[O-] | inactive: 1.15 |
| CP(=O)(Nc1ccccc1F)Oc1ccccc1 (stereo unspecified) | inactive: 0.99 |
| CC(C)c1ccc(OP(C)(=O)Nc2ccc(SC(F)(F)F)cc2)cc1 (stereo unspecified) | inactive: 1.02 |
| CCN(CC)CCCOC(=O)C(O)(c1ccccc1)C1CCCCC1 (stereo unspecified) | inactive: 1 |
| CP(=O)(Nc1ccccc1)Oc1ccc(F)cc1 (stereo unspecified) | inactive: 1.08 |
| CCCCCOc1ccc(NP(C)(=O)Oc2ccc(Cl)cc2Cl)cc1 (stereo unspecified) | inactive: 1.02 |
| CCOC(=O)c1ccc(NP(C)(=O)Oc2ccc(F)cc2)cc1 (stereo unspecified) | inactive: 1.11 |
| COc1ccc(OP(C)(=O)Nc2ccc(SC(F)(F)F)cc2)cc1 (stereo unspecified) | inactive: 0.87 |
| Cc1nc2ccc3ccccc3c2o1.O=[N+]([O-])c1cc([N+](=O)[O-])c(O)c([N+](=O)[O-])c1 | inactive: 1.2 |
| CP(=O)(OCCOc1ccccc1)OCCOc1ccccc1 | inactive: 0.92 |
| CP(=O)(Nc1ccc(Cl)cc1Cl)Oc1ccccc1 (stereo unspecified) | inactive: 0.87 |
| Cc1cc(C)cc(OP(C)(=O)Nc2cccc(C(F)(F)F)c2)c1 (stereo unspecified) | inactive: 1.06 |
| COc1ccccc1OP(C)(=O)Nc1ccc(C)c(C)c1 (stereo unspecified) | inactive: 0.947 |
| COc1ccc(OP(C)(=O)Nc2ccccc2Br)cc1 (stereo unspecified) | inactive: 0.75 |
| O=[N+]([O-])c1cc([N+](=O)[O-])c(Nc2ccccn2)c([N+](=O)[O-])c1 | inactive: 1.17 |
| Cc1c(NP(C)(=O)Oc2ccc(C(C)C)cc2)c(=O)n(-c2ccccc2)n1C (stereo unspecified) | inactive: 0.89 |

| SMILES | fold induction |
| --- | --- |
| CP(=O)(Nc1ccccn1)Oc1ccccc1 (stereo unspecified) | inactive: 0.98 |
| COc1ccccc1OP(C)(=O)Nc1ccc(C)cc1C (stereo unspecified) | inactive: 1.12 |
| CCc1ccc(OP(C)(=O)O)cc1 | inactive: 1.12 |
| COc1ccccc1OP(C)(=O)Nc1ccc(Br)cc1 (stereo unspecified) | inactive: 1.13 |
| COc1ccc(OP(C)(=O)Nc2ccccn2)cc1 (stereo unspecified) | inactive: 0.88 |
| CN(C)CCOC(=O)C(O)(c1ccccc1)C1CCCC1 (stereo unspecified) | inactive: 1.03 |
| CC(C)(C)c1ccc(OP(C)(=O)O)cc1 | inactive: 0.99 |
| COc1ccccc1OP(C)(=O)Nc1ccccc1Br (stereo unspecified) | inactive: 0.95 |
| CP(=O)(Nc1ccc(Cl)cc1)Oc1ccc(F)cc1 (stereo unspecified) | inactive: 1.04 |
| CN(C)C(=O)c1c([N+](=O)[O-])cc([N+](=O)[O-])cc1[N+](=O)[O-] | inactive: 1 |
| CCN(CC)CC(O)COC(=O)C(O)(c1ccccc1)C1CCCCC1 (stereo unspecified) | inactive: 1.11 |
| COc1ccc(OP(C)(=O)Nc2ccc(Br)cc2)cc1 (stereo unspecified) | inactive: 0.85 |
| COc1ccccc1OP(C)(=O)Nc1c(C)n(C)n(-c2ccccc2)c1=O (stereo unspecified) | inactive: 1.03 |
| O=C(OCCCN1CCCC1)C(O)(c1ccccc1)C1CCCCC1 (stereo unspecified) | inactive: 1 |
| CP(=O)(Oc1ccccc1)N1CCOC1=O (stereo unspecified) | inactive: 1.06 |
| CCc1ccc(OP(C)(=O)Nc2cccnc2)cc1 (stereo unspecified) | inactive: 1.05 |
| CCOC(=O)c1ccc(NP(C)(=O)Oc2ccc(Cl)cc2)cc1 (stereo unspecified) | inactive: 0.81 |
| CP(=O)(OC12CC3CC(CC(C3)C1)C2)OC12CC3CC(CC(C3)C1)C2 | inactive: 0.88 |
